# Literature values as cited in patent publication EP4640072A1, “FLEECE MATERIALS TREATED WITH AN ION-PAIRING AGENT AND ORAL PRODUCTS COMPRISING FLEECE MATERIALS TREATED WITH AN ION-PAIRING AGENT” (Nicoventures Trading Limited, priority 2024, dated 2025).
# Details: lipophilicity of the organic acid; values obtained from PubChem or calculated
substance,measurement,value
Chicoric acid,log(P)*,2.0
